We go through 19 compounds from PubChem BioAssay AID588354 (The Scripps Research Institute Molecular Screening Center, 2011).

Amino acid sequences for entries named in this document (tags omitted).
UniProt Q15788, whole entry: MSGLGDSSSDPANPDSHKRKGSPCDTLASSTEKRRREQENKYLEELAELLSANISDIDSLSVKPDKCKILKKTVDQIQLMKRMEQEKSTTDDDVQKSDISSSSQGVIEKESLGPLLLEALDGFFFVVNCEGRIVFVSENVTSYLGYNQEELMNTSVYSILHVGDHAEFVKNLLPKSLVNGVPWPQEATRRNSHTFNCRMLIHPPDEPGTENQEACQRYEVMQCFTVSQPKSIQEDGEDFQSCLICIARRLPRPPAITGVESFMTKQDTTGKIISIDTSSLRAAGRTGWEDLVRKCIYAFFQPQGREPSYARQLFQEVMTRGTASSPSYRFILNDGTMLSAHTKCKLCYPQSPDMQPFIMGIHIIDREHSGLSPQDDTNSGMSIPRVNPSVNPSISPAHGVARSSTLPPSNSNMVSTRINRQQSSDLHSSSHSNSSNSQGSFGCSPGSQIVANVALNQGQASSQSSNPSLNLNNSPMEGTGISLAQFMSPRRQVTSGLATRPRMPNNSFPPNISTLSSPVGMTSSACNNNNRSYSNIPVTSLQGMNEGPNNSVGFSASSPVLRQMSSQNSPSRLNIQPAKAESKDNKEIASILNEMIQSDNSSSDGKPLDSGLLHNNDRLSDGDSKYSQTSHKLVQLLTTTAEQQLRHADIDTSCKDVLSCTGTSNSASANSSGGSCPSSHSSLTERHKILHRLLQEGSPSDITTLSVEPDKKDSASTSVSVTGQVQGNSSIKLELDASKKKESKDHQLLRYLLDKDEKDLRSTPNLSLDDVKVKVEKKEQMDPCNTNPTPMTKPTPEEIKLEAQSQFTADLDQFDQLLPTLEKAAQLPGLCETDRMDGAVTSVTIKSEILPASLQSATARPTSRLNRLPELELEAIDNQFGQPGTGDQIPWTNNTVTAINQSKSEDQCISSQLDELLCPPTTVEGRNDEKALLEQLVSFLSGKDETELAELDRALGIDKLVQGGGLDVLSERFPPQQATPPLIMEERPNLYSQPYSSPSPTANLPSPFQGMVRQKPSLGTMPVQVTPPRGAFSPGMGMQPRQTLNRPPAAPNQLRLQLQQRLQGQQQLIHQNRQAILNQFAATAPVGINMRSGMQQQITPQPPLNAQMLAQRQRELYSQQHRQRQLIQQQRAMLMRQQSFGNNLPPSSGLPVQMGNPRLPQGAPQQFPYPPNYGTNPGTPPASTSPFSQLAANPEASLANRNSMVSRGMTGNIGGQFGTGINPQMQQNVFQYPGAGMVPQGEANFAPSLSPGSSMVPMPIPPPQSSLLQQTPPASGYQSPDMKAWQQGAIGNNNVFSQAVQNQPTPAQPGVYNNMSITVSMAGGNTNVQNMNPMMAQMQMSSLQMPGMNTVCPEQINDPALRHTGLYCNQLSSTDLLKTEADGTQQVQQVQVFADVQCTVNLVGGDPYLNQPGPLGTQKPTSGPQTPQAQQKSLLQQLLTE

SMILES strings stand for the structures. The entries are a selection whose mix differs from that of the whole data set. Active and inactive are the calls of the source.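 Rule for the calls: active = inhibition above the campaign mean plus 3 SD, with each screening campaign given its own cutoff (cut at about 60% in these data); inactive = the rest.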

The target of the assay is Nuclear receptor coactivator 1 (Homo sapiens) (UniProt Q15788). As to the kind of experiment: NCOA1 GAL4-fusion reporter inhibition – cell-based, luminescence, primary screen (AID 588354).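 Note: 0% = DMSO treated cells and 100% = gossypol at 36 µM.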 To be noted: HEK293 GAL4-SRC1 luciferase reporter, at 3.6 µM, hits give high values.
With `CCOC(=O)C(CC)C1=NC(C)(C)Cc2ccccc21.O=[N+]([O-])c1cc([N+](=O)[O-])c(O)c([N+](=O)[O-])c1` (centres undefined), the inhibition was inactive: -0.78%.
Under `CC1=C2N=C(C=C3N=C(C(C)=C4[N-][C@@](C)([C@@H]5N=C1[C@](C)(CCC(=O)NC[C@@H](C)OP(=O)([O-])O[C@H]1[C@@H](O)[C@@H](n6cnc7cc(C)c(C)cc76)O[C@@H]1CO)[C@H]5CC(N)=O)[C@@](C)(CC(N)=O)[C@@H]4CCC(N)=O)[C@@](C)(CC(N)=O)[C@@H]3CCC(N)=O)C(C)(C)[C@@H]2CCC(N)=O.[C-]#N.[Co+3]` stands inactive: 3.71%.
With `O=[N+]([O-])c1cc([N+](=O)[O-])c(Nc2nnnn2CCO)c([N+](=O)[O-])c1` the figure was inactive: -5.38%; with `CCCOc1ccc(NP(C)(=O)Oc2ccc(Cl)cc2)cc1` (centres undefined), inactive: -18.2%; with `CP(=O)(Nc1ccc(SC(F)(F)F)cc1)Oc1ccccc1` (centres undefined), inactive: 7.61%.
With `COc1ccccc1OP(C)(=O)Nc1c(C)cccc1C` (centres undefined) the figure was inactive: 0.56%; with `CN1CCCCC1COC(=O)C1(O)c2ccccc2CCc2ccccc21` (centres undefined), inactive: 11.9%.
Regarding `CN(Cc1cccnc1)C(=O)COc1ccc(Cl)c(Cl)c1.O=[N+]([O-])c1cc([N+](=O)[O-])c(O)c([N+](=O)[O-])c1`, the inhibition was inactive: 11.4%.
With `O=[N+]([O-])c1cc([N+](=O)[O-])c(-n2nnc3ccccc32)c([N+](=O)[O-])c1` the figure was inactive: -3.24%; with `Cc1nc2ccc3ccccc3c2s1.O=[N+]([O-])c1cc([N+](=O)[O-])c(O)c([N+](=O)[O-])c1`, inactive: 3.02%.
Regarding `O=[N+]([O-])c1cc([N+](=O)[O-])c(-c2cnn(-c3ccccc3)c2)c([N+](=O)[O-])c1`, the inhibition is inactive: -5.65%.
With `Cc1cc(C)cc(OP(C)(=O)Nc2ccc(C)cc2C)c1` (centres undefined) the figure was inactive: -3.94%; with `CCOC(=O)c1ccc(NP(C)(=O)Oc2cc(C)cc(C)c2)cc1` (centres undefined), inactive: -19.1%; with `COc1ccccc1OP(C)(=O)Nc1cccc(Br)c1` (centres undefined), inactive: 1.03%.
With `Cc1cc(C)cc(OP(C)(=O)Nc2ccccn2)c1` (centres undefined) the figure was inactive: -3.71%.
With `Cc1ccc(C)c(NP(C)(=O)Oc2ccccc2)c1` (centres undefined) the figure was inactive: -15.7%; with `O=C(O)c1cccc(Nc2c([N+](=O)[O-])cc([N+](=O)[O-])cc2[N+](=O)[O-])c1`, inactive: 0.89%; with `CC1=NCCc2c1[nH]c1ccccc21.O=[N+]([O-])c1cc([N+](=O)[O-])c(O)c([N+](=O)[O-])c1`, inactive: -11.4%.
`Cc1cccc(C)c1OP(C)(N)=O` (centres undefined): the inhibition was inactive: -3.22%.
